Ab-95 light chain CDR variants: yeast mating affinities

Values reported by Engelhart et al. 2022, doi:10.1038/s41597-022-01779-4 (FLAb copy).

The target is the same throughout: PDVDLGDISGINAS, from the HR2 region of SARS-CoV-2 spike.

Ab-95 is the parent antibody, in scFv form: VH, then three GGGGS repeats, then VL. The heavy chain is unchanged in all variants.
VH: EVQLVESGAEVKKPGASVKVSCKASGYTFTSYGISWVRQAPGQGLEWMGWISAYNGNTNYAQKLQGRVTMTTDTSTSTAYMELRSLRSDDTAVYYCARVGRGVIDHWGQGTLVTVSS
VL: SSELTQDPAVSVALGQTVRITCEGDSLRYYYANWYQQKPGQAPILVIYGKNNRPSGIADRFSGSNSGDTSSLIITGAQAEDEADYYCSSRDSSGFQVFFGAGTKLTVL

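The parent was found by panning a naive human phage display library on the peptide. In library AAYL52, one, two or three CDR residues were substituted; doubles and triples were drawn at random. The assay is AlphaSeq: two haploid yeast populations carry antibody and antigen on their surface. After mating in shaken culture at 30 °C for 16 h, diploids were selected and their barcode pairs sequenced. Each replicate has its own calibration line, from reference interactions of the BCL2 family. Mating was done three times.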

Variants are written as CDR1, CDR2 and CDR3 of the light chain (limits as in the source). Parent: EGDSLRYYYAN, GKNNRPS, SSRDSSGFQVF. This list gathers variants with a substitution at S26 (VL, numbered from residue 1). The Kd shown is the geometric mean over detected replicates; a lower Kd is a better binder. Where no diploid with the target was found in any replicate, the entry reads "nd": below detection, most likely a poor binder, though not proof of it. Order: sorted from the lowest average up, undetected variants last. Empty control strains, which show no peptide, gave a signal in 28% of pairings with library AAYL52; the median was 8.2 µM and 95% of these signals were weaker than 800 nM. No background was subtracted. Also given: how often the same scFv was detected with the empty control strains.

EGDTLRNEYAN | GKNNRPS | SSRDSSGFQVF: 21 nM (3 of 3 replicates; controls 7 of 9).
EGIPLRYMYAN | GKNNRPS | SSRDSSGFQVF: 64 nM (3 of 3 replicates; controls 3 of 9).
EGDALRYYYAN | GKNNRPS | SSRDSSGFQVG: 69 nM (3 of 3 replicates; controls 1 of 9).
EGDGLRYYYAN | GKNNRPS | YSRDSSGFQVF: 110 nM (3 of 3 replicates; controls 5 of 9).
EGDYLSYYKAN | GKNNRPS | SSRDSSGFQVF: 110 nM (3 of 3 replicates; controls 4 of 9).
EGDRLRYYYAN | GKNERPI | SSRDSSGFQVF: 150 nM (3 of 3 replicates; controls 3 of 9).
EGDMLRYYYAN | GKNNRPS | SSRDSSGFFVP: 200 nM (3 of 3 replicates; controls 2 of 9).
EGDILRYYQAN | GKNNRPY | SSRDSSGFQVF: 400 nM (3 of 3 replicates; controls 0 of 9).
EGDFLRYYYAN | GKNMRPS | SSRDSSGFQVG: 410 nM (3 of 3 replicates; controls 5 of 9).
EGDGLRSYYAN | GKNNRPS | SSRDFSGFQVF: 650 nM (3 of 3 replicates; controls 3 of 9).
EGDNLRYYYAN | GKNNRPS | SHRDSSKFQVF: 990 nM (2 of 3 replicates; controls 2 of 9).
EGDELRYYYAN | GKNNRPS | SSRDSHGLQVF: 1.3 µM (3 of 3 replicates; controls 3 of 9).
EGDPLRYYYAN | GKNNRPS | SSRDWPGFQVF: 1.4 µM (3 of 3 replicates; controls 2 of 9).
EGDVLRYYAAN | GKNNRPS | SSRDSTGFQVF: 1.5 µM (3 of 3 replicates; controls 1 of 9).
EGDGLRYYYAN | GLNNRKS | SSRDSSGFQVF: 2.4 µM (1 of 3 replicates; controls 1 of 9).
EGDALRYYYAN | GKNNRQS | SSRMSSGFQVF: 2.4 µM (3 of 3 replicates; controls 1 of 9).
EGLILRYYGAN | GKNNRPS | SSRDSSGFQVF: 2.4 µM (3 of 3 replicates; controls 1 of 9).
EGILLRYYYAN | GKNNEPS | SSRDSSGFQVF: 4.2 µM (1 of 3 replicates; controls 5 of 9).
VGDHLRYYYAN | GKNNRPS | SSRDSSYFQVF: 4.8 µM (3 of 3 replicates; controls 5 of 9).
EGDKLRYYYAN | GANNRPF | SSRDSSGFQVF: 6.1 µM (1 of 3 replicates; controls 3 of 9).
EGSYLRYYYAN | GKNNRPS | SSRDSGGFQVF: 6.6 µM (3 of 3 replicates; controls 3 of 9).
EGDWLRSYYAN | GKNNRPS | SSRDSSGIQVF: 7.6 µM (2 of 3 replicates; controls 4 of 9).
EGDILRYYYAN | GKNNRGS | SSRDSSGKQVF: 7.8 µM (2 of 3 replicates; controls 1 of 9).
EGDHLRYDYAN | GKNNDPS | SSRDSSGFQVF: 8.1 µM (3 of 3 replicates; controls 3 of 9).
EGDELRYYYAN | GKNNRPS | SINDSSGFQVF: 8.9 µM (1 of 3 replicates; controls 4 of 9).
EGDYLRYYYLN | GKNNPPS | SSRDSSGFQVF: 10 µM (2 of 3 replicates; controls 3 of 9).
EGDLLRYYLAN | GKNNRPS | SSRDSMGFQVF: 11 µM (2 of 3 replicates; controls 4 of 9).
EGDILRYYYAN | GKNNRPS | SSRDSCIFQVF: 13 µM (2 of 3 replicates; controls 4 of 9).
EGDCLRYYYAN | GKQNRPS | NSRDSSGFQVF: 20 µM (1 of 3 replicates; controls 3 of 9).
EGDQLRYYYAN | GKNNRPS | SSRDGSGFQVF: 29 µM (1 of 3 replicates; controls 1 of 9).
IGDILRYYYAN | GKNNRPS | SSRDSSGFQVR: 30 µM (2 of 3 replicates; controls 3 of 9).
IGDGLRYYYAN | GYNNRPS | SSRDSSGFQVF: 37 µM (3 of 3 replicates; controls 5 of 9).
EGDILRYYYAN | HKNIRPS | SSRDSSGFQVF: 38 µM (1 of 3 replicates; controls 3 of 9).
EGDWLRYYYAN | GKNNRPS | SSRDTSGFQLF: 52 µM (1 of 3 replicates; controls 3 of 9).
EGDKLRYYYAN | GKNNRPC | SSRDSSFFQVF: nd (0 of 3 replicates; controls 3 of 9).
EGDWLRYMYLN | GKNNRPS | SSRDSSGFQVF: nd (0 of 3 replicates; controls 2 of 9).
EGDGLRYYYAN | GKNWRPS | SSIDSSGFQVF: nd (0 of 3 replicates; controls 0 of 9).
EGDDLRYYYAR | GKNNRHS | SSRDSSGFQVF: nd (0 of 3 replicates; controls 1 of 9).
EGDYLRYYYAN | NKNNRPS | SSRDSSGIQVF: nd (0 of 3 replicates; controls 3 of 9).

The first 5 variants above that were never detected:

The variant EGDKLRYYYAN | GKNNRPC | SSRDSSFFQVF showed nd (0 of 3 replicates; controls 3 of 9).
The variant EGDWLRYMYLN | GKNNRPS | SSRDSSGFQVF showed nd (0 of 3 replicates; controls 2 of 9).
The variant EGDGLRYYYAN | GKNWRPS | SSIDSSGFQVF showed nd (0 of 3 replicates; controls 0 of 9).
The variant EGDDLRYYYAR | GKNNRHS | SSRDSSGFQVF showed nd (0 of 3 replicates; controls 1 of 9).
The variant EGDYLRYYYAN | NKNNRPS | SSRDSSGIQVF showed nd (0 of 3 replicates; controls 3 of 9).

In this assay the parent's reference entry averaged 200 nM; its copy inside this library read 180 nM.